Assay [1] has as its target clone hp78a (human 5-HT4B receptor) (Homo sapiens, UniProt P34969). Briefly: Competition of [3H]5-HT binding to membranes of cells transiently expressing clone hp78a.
Assay [2] has as its target human 5-HT4B receptor (Homo sapiens, UniProt P34969). Briefly: cAMP formation in intact Cos-7 cells transiently expressing the receptor. Particulars: for FOLD cAMP STIMULATION relative to basal levels: drug 1 μM, intact Cos-7 cells. (Cyclic AMP is a second messenger, typically raised through Gs and lowered through Gi signalling.)

Sequences of proteins named here, by UniProt entry; tags and fusion partners are left off. Residues count along the entry.
UniProt P34969, 1-445 isoform P34969-2: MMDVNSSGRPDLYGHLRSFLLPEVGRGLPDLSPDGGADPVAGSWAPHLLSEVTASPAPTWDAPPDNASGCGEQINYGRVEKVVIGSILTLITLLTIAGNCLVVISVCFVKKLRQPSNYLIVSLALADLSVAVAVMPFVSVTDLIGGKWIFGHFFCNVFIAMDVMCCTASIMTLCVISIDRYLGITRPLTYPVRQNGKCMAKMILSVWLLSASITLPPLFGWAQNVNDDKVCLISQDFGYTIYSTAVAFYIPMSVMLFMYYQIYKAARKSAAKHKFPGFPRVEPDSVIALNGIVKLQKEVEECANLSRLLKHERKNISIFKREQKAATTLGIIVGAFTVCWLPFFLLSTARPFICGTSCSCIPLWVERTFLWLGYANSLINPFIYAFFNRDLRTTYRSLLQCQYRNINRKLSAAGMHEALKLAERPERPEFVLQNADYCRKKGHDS

Turning to `NCCc1c[nH]c2ccc(C(N)=O)cc12` [5-CT, 5-Carboxamidotryptamine], the “Hill coefficient nH” value in assay [1] stood at 0.95 ± 0.06. Moreover, in assay [2], the “Ki in binding assays higher affinity than EC50 in functional assays” value is “approximately 100 fold” and the “agonist activity on cAMP” value is reported as “potent agonists”.
Regarding `CCCN(CCC)C1CCc2cccc(O)c2C1` (centres unmarked) [DPAT], the “FOLD cAMP STIMULATION relative to basal levels” value in assay [2] is reported as 1.7 ± 0.4 fold; in assay [2] (listed as 8-OH-DPAT), “about 2 fold”.

The values above are taken from patent US6376243B1, “DNA encoding a human serotonin receptor (5-HT4B) and uses thereof” (Synaptic Pharmaceutical Corporation, priority 1992, dated 2002).
